The source of these data is patent US20160151408A1, “NOVEL THERAPY FOR MULTIPLE SCLEROSIS USING VITAMIN D AND GUT BACTERIA” (California Institute of Technology, priority 2012, published 2016).

A short description of this experiment: Serum 1,25D levels in germ-free mice. The settings on record: GF mice fed 50 μg PSA 3× per week for 2 weeks, oral.

Regarding polysaccharide A [PSA], the “serum levels of 1,25D” value is given as “increases serum levels of 1,25D”.
